pEC50: −log10 of the molar value.

Amino acid sequences for entries named in this document (tags omitted). Residues count along the entry.
UniProt P18507, 40-475 limits assumed: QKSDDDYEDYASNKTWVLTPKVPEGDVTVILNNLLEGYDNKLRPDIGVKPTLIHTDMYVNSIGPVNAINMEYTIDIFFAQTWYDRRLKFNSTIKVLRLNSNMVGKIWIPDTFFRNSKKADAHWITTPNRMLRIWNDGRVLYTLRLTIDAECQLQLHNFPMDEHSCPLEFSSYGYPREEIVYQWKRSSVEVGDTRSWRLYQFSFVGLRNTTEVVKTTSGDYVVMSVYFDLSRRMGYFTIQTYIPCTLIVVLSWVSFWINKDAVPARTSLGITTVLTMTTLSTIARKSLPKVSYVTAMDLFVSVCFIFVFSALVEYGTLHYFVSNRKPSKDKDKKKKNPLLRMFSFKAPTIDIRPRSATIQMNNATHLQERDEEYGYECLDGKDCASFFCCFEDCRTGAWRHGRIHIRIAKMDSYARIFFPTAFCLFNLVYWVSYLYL
UniProt P34903, 29-492 limits assumed: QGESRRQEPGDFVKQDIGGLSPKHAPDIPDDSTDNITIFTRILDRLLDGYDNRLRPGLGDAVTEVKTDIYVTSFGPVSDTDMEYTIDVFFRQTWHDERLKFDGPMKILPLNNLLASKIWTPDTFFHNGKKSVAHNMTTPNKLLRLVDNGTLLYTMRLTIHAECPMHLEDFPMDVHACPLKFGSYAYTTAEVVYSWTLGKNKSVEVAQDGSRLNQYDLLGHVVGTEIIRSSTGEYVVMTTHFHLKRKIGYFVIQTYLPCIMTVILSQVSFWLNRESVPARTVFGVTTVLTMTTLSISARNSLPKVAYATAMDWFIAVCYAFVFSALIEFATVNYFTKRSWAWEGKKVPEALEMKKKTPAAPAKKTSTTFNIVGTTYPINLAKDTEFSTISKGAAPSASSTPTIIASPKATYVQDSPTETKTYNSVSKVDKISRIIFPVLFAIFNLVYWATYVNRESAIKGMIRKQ
UniProt P28472, 26-473 partner limits assumed: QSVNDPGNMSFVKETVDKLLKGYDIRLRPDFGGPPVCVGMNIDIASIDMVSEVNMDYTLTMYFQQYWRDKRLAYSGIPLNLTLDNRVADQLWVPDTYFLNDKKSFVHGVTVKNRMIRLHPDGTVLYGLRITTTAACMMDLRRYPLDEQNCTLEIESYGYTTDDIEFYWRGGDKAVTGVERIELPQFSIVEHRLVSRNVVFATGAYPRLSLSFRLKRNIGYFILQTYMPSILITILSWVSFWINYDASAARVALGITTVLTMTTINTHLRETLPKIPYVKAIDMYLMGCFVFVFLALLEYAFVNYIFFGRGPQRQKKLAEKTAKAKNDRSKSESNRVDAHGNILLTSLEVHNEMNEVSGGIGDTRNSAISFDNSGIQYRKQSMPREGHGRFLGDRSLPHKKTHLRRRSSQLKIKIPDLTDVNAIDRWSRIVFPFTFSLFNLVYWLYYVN

Data set [1] in a line: Liver microsomal stability, mouse. Conditions: 37° C., 4 μM compound, 30 minutes.
Data set [2] in a line: Liver microsomal stability, human. Conditions: 37° C., 4 μM compound, 30 minutes.
Data set [3] can be described thus: Liver microsomal stability, rat. Conditions: 37° C., 4 μM compound, 30 minutes.
The nature of data set [4]: Liver microsomal stability, dog. Conditions: 37° C., 4 μM compound, 30 minutes.
Data set [5] addresses α3, β3, γ2 GABA A receptor (Homo sapiens, UniProt P18507+P34903). The experiment in a line: FLIPR functional assay, α3 GABAA receptor subtype in HEK-293 cells. In kind it is cell-based. Conditions: read-out: α3 Binding EC50; FLIPR membrane potential, potentiation of GABA EC20.
A short description of data set [6]: Pharmacokinetics and brain concentration after 10 mg/kg P.O. dose, rats. Conditions: 10 mg/kg oral dose.
For the next data set, the system named is Male NIH Swiss mice. The experiment in a line: Marble burying assay (anxiolytic). The data set is classed as in vivo. Here is the method:
FIG. 9 are graphs showing the number of marbles buried for each dose of compound in the marble burying assay for A) HZ-166 and KRM-II-81; B) MP-III-085, KRM-II-82 and KRM-II-18B; C) MP-III-080 and KRM-III-78; D) KRM-III-59; E) KRM-III-66 and KRM-III-65; F) KRM-III-79 and KRM-III-67. Male NIH Swiss mice (n=10) were dosed i.p. with vehicle (1% carboxymethyl cellulose) or one of the test compounds (10 or 30 mg/kg) 30 minutes prior to being tested in the marble burying assay.
The marble burying assay is designed to measure the anxiolytic-effect of a compound. When mice are nervous, they will bury marbles. As there becomes a decrease in amount of marbles buried, the better anxiolytic effect of a compound. Herein, KRM-II-81 is shown to be a better anxiolytic than HZ-166, which is a published anxiolytic (Fischer et al. Neuropharmacology, 2010, 59, 612).
The marble burying assay is used to determine the anxiolytic activity of a given compound. Mice are placed in a tub containing 20 marbles placed over a bed of sawdust. Defensive burying (Broekkamp 1986) is the natural reaction for the mice. […]
Experiments were carried out by the methods described in Li et al. (Life Sciences 2006, 78, 1933-1939). […] The number of marbles buried (⅔ covered with sawdust) was counted and submitted to inter-observer reliability assessment.

For the compound `Brc1ccc2c(c1)C(c1ccccc1)=NCc1c(-c3cnco3)ncn1-2`, the “Mouse Liver microsome stability (reported in % remaining)” value in data set [1] is listed as 70 % remaining. For the same compound, the “Human Liver microsome stability (reported in % remaining)” value in data set [2] stood at 78 % remaining. The “Rat Liver microsome stability (reported in % remaining)” value in data set [3] amounted to 77 % remaining. Moreover, the “Dog Liver microsome stability (reported in % remaining)” value in data set [4] came out at 89 % remaining. Moreover, the pEC50 in data set [5] was 6.94.

Regarding `C#Cc1ccc2c(c1)C(c1ccccn1)=NCc1c(-c3nc(CC)no3)ncn1-2`, the free fraction in data set [6] (brain) worked out at 11%. Further, in data set [6] (one hour after dose, rats stated for KRM-II-81), the “brain unbound concentration ([brain]u)” value stood at 340 ng/g. Further, the “Mouse Liver microsome stability (reported in % remaining)” value in data set [1] is listed as 92 % remaining. For the same compound, the “marbles buried at 10 mg/kg” value in the data set on Male NIH Swiss mice (10 mg/kg i.p.) was “show a reduction”. In addition, the “sedation observed in marble burying assay” value in the data set with Male NIH Swiss mice (10 and 30 mg/kg i.p.) is recorded as “sedation was also observed”. Also, the “Human Liver microsome stability (reported in % remaining)” value in data set [2] came to 91 % remaining. Moreover, the “Rat Liver microsome stability (reported in % remaining)” value in data set [3] stood at 94 % remaining. Moreover, the “Dog Liver microsome stability (reported in % remaining)” value in data set [4] is 97 % remaining.

As for `C#Cc1ccc2c(c1)C(c1ccccn1)=NCc1c(-c3nc(C)no3)ncn1-2`, the “Mouse Liver microsome stability (reported in % remaining)” value in data set [1] worked out at 85 % remaining. For the same compound, in data set [2], the “Human Liver microsome stability (reported in % remaining)” value came out at 81 % remaining. In data set [3], the “Rat Liver microsome stability (reported in % remaining)” value came out at 93 % remaining. Also, the “Dog Liver microsome stability (reported in % remaining)” value in data set [4] is given as 93 % remaining.

The values above are taken from patent US10259815B2, “Gabaergic ligands and their uses” (UWM Research Foundation, Inc., priority 2015, dated 2019).
